Values quoted from earlier work as cited in patent US20120157377A1, “METHODS TO ENHANCE NIGHT VISION AND TREATMENT OF NIGHT BLINDNESS” (priority 2012, published 2012).

Tested on: MCF-7 human breast cancer cells
Details: cited from earlier work

insulin
increase of the cytotoxic effect of methotrexate by insulin: up to 10,000 fold
